Measurements reported in US20080003569A1, “Method for the Detection of Intracellular Parameters With Luminescent Protein Probes for the Screening of Molecules Capable of Altering Said Parameters” (priority 2004, published 2008).

The chains behind the UniProt entries cited, without tags or fusion partners. Where a name states a change or a piece, a line headed by the entry shows the natural chain unless it says otherwise.
UniProt P41146: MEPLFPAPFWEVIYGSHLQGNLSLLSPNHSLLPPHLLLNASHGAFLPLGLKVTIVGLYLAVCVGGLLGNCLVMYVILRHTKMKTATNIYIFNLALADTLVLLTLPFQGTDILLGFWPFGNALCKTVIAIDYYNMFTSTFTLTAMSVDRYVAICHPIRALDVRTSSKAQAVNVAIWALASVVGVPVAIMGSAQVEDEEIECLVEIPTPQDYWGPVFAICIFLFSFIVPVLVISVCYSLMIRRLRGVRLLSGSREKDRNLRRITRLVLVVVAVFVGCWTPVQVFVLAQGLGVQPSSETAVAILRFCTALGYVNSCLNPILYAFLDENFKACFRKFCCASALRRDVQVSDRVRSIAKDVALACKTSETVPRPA

Target: wild-type ORL1 receptor (Homo sapiens, UniProt P41146)
Settings: control CHO cells expressing an ORL1 wild-type receptor, stimulated with nociceptine

## Nociceptine
  increase in cps: does not induce any increase in cps
